Results reported in PubChem BioAssay AID601 (SRMLSC, 2007).
The entries are a selection whose mix differs from that of the whole data set. The source made the active and inactive calls.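 The calls were made as follows: active = viability loss from added drug above about 55%, and viability with drug at most 40%, in both replicates (limit read from the data, passing the limit was not always enough); inconclusive = both conditions met in only one replicate; inactive = neither replicate meets both conditions.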

Test: MRP1 drug-resistance reversers in H69AR cells – cell-based, doxorubicin co-treatment, pilot screen (AID 601)
Settings: H69AR cells + 2 uM doxorubicin, CellTiter-Glo, 72 h; at 10 µM; stronger effect = higher value

| Structure (SMILES) | differential viability (reversal) |
| --- | --- |
| Fc1ccccc1NC1CCN(Cc2ccccc2)CC1 | inactive: 6.88% |
